One molecule from PMC3510514 (Nucleic Acids Research, 2012) can be followed below.

The assay addresses T1, GST-ubiquitin (human, UniProt P0CG48 1-76).
T1 construct: ubiquitin, the cut product of the polyubiquitin precursor; also called GST-tagged ubiquitin; source: purified
Description: pull-down; GST-ubiquitin (3 μg) on glutathione-sepharose beads, FLAG-Spartan (1 μg) in solution; 4 h at 4°C, buffer I (40 mM Tris HCl pH 7.5, 85 mM NaCl, 0.1 mM DTT, 10% glycerol, 0.01% NP40); immunoblot with anti-FLAG and anti-GST. The note with it: both partners purified. (A western blot detects proteins with antibodies after separation by electrophoresis.)

B1: FLAG-Spartan (wild type) (natural protein, human, UniProt Q9H040 1-489, looked up)
chain: MDDDLMLALRLQEEWNLQEAERDHAQESLSLVDASWELVDPTPDLQALFVQFNDQFFWGQLEAVEVKWSVRMTLCAGICSYEGKGGMCSIRLSEPLLKLRPRKDLVETLLHEMIHAYLFVTNNDKDREGHGPEFCKHMHRINSLTGANITVYHTFHDEVDEYRRHWWRCNGPCQHRPPYYGYVKRATNREPSAHDYWWAEHQKTCGGTYIKIKEPENYSKKGKGKAKLGKEPVLAAENKDKPNRGEAQLVIPFSGKGYVLGETSNLPSPGKLITSHAINKTQDLLNQNHSANAVRPNSKIKVKFEQNGSSKNSHLVSPAVSNSHQNVLSNYFPRVSFANQKAFRGVNGSPRISVTVGNIPKNSVSSSSQRRVSSSKISLRNSSKVTESASVMPSQDVSGSEDTFPNKRPRLEDKTVFDNFFIKKEQIKSSGNDPKYSTTTAQNSSSSSSQSKMVNCPVCQNEVLESQINEHLDWCLEGDSIKVKSEESL
notes: Spartan/C1orf124, human; cDNA clone bought from ImaGenes; also called C1orf124; WT Spartan; source: S. cerevisiae BJ5464, purified (glutathione-Sepharose, eluted by PreScission protease); not shown: GST, N-terminal, cleaved; FLAG, N-terminal, kept
In the case of B1, the binding result is on record as “binds”.
